From PubChem BioAssay AID1688 (National Center for Advancing Translational Sciences (NCATS), 2009)
The list shows a part of the results, in another mix than the full data. Inconclusive results are not listed. Calls of active or inactive are those of the source. The call rests on the fitted dose curve; in most records, active means well fitted inhibition curve with a large enough effect; inconclusive means small, poorly fitted or top-dose-only effect, or effect the other way; inactive means no such curve, though single readings can be large or run the other way.

Assay: qHTS Multiplex Assay to Identify Dual Action Probes in a Cell Model of Huntington: Aggregate Formation (GFP); further: nearly all actives have a fitted effect of over 60% in size
Details: PC12 HttQ103-GFP aggregates, Acumen cytometry, 40 h; activity change, negative = inhibition: at the top concentration
On the % scale 0 is the no-effect control and ±100 the full control effect; potency means the concentration at half of the fitted maximal effect.

SMILES	activity change, negative = inhibition	Potency
O=[N+]([O-])c1ccc(Nc2ccc(Oc3ccc([N+](=O)[O-])cc3[N+](=O)[O-])cc2)c([N+](=O)[O-])c1	inactive: 5.69%	–
Cc1cc(SC(NC=O)C(Cl)(Cl)Cl)ncn1 (configuration not stated)	inactive: 16.1% [at 46.1 µM]	–
O=P(Nc1ccccn1)(c1cccc2ccccc12)c1cccc2ccccc12	inactive: 12.5%	–
CCOC(=O)Nc1cccc([As](=O)(O)O)c1	inactive: -9.85%	–
Cc1cc(SC(NC(=O)c2ccccc2)C(Cl)(Cl)Cl)nc(C(C)C)n1 (configuration not stated)	inactive: 19.9% [at 46.1 µM]	–
CCOC(=O)Nc1ccc([As](=O)(O)O)c(O)c1	inactive: -9.6%	–
CCC(C)N(CC(C)C)C(=S)SC(NC(C)=O)C(Cl)(Cl)Cl (configuration not stated)	inactive: -13.5% [at 46.1 µM]	–
CCOC(=O)c1ccc(NC(=O)C(C)(CCl)SC)cc1 (configuration not stated)	inactive: -8.41%	–
O=C(COc1ccccc1)OC1CN2CCC1CC2 (configuration not stated)	inactive: -14.3% [at 46.1 µM]	–
COP1(=S)c2c(C)nn(CCC#N)c2N=C(c2ccc(F)cc2)N1C (configuration not stated)	inactive: -8.71% [at 46.1 µM]	–
COc1ccc(N/C(=N/P(=O)(N2CCOCC2)N2CCOCC2)N2CCOCC2)cc1	inactive: 7.8% [at 46.1 µM]	–
COc1ccc2nc(NP(=O)(c3ccccc3)c3ccccc3)sc2c1	inactive: 21.1% [at 46.1 µM]	–
COc1cc(I)ccc1[As](=O)(O)O	inactive: 10.9%	–
O=C(OC1CN2CCC1CC2)C12CC3CC(CC(C3)C1)C2 (configuration not stated)	inactive: 17.2% [at 46.1 µM]	–
Cc1cc(=O)[nH]c(N[N+](=O)[O-])n1	inactive: 15.4% [at 46.1 µM]	–
CC(C)NC(=O)NP(=O)(Oc1ccccc1)Oc1ccccc1	inactive: 0.888% [at 46.1 µM]	–

SMILES	activity change, negative = inhibition	Potency
CCN(CC)C(=S)SC(NC=O)C(Cl)(Cl)Cl (configuration not stated)	inactive: -5.97% [at 46.1 µM]	–
CC(C)c1ccc(OP(=O)(Nc2ccccn2)Oc2ccccc2F)cc1 (configuration not stated)	inactive: 7.25%	–
Cc1ccc2nc3c(c(C)c2c1)CC(C(Cl)Cl)S3 (configuration not stated)	inactive: 2.27% [at 46.1 µM]	–
Cc1ccc(OP(=O)(Nc2ccc([N+](=O)[O-])cn2)Oc2ccc(C)cc2)cc1	inactive: 23.9%	–
O=[As](O)(c1ccc(O)cc1)c1ccccc1O	inactive: 13.9%	–
C[As](=O)(O)c1cccc(C(=O)O)c1	inactive: -9.85%	–
O=[N+]([O-])c1ccc2c(c1)nnn2O	inactive: -9% [at 46.1 µM]	–
CN(C(=O)Cc1ccccc1)[C@@H]1CC[C@]2(CCCO2)C[C@H]1N1CCCC1	inactive: 5.94%	–
CCOP1(=S)c2c(C)nn(CCC#N)c2N=C(c2ccc(F)cc2)N1C (configuration not stated)	inactive: 16.3% [at 46.1 µM]	–
O=C(O)COc1ccc([As](=O)(O)O)cc1[N+](=O)[O-]	inactive: 2.83%	–
Nc1ccccc1[As](=O)(O)c1ccccc1	inactive: -4.3%	–
CS(=O)(=O)c1cc([N+](=O)[O-])c2no[n+]([O-])c2c1	inactive: 6.62%	–
CCOP1(=S)c2c(C)nn(CCC#N)c2N=C(c2ccccc2F)N1C (configuration not stated)	inactive: -6.67% [at 46.1 µM]	–
O=P(Nc1nccs1)(Oc1ccccc1)Oc1ccccc1	inactive: -16.6% [at 46.1 µM]	–
O=P(Nc1nccs1)(c1ccccc1)c1nc2ccccc2s1 (configuration not stated)	–	active: 11.2 µM
COc1cc(C2NCCC3(OCCO3)C2(C)C)cc(OC)c1OC (configuration not stated)	inactive: 10.4% [at 46.1 µM]	–
